Earlier results on one molecule are cited in publication PMC8041276 (ACS Chemical Neuroscience, 2021).

Chains of the proteins cited; added tags and fusions are not shown.
UniProt P50406, whole entry: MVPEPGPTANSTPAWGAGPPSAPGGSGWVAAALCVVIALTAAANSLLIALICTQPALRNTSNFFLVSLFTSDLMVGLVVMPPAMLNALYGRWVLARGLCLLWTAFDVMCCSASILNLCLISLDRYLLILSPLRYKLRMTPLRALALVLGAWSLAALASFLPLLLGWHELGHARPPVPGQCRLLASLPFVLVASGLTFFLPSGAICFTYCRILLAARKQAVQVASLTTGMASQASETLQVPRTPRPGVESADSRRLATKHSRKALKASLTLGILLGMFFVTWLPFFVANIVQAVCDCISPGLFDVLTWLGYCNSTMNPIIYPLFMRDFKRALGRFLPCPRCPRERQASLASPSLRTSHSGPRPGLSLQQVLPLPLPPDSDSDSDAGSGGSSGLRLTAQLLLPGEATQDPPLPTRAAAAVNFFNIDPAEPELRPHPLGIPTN

This data set deals with 5-HT6R (Homo sapiens, UniProt P50406). The conditions noted are these: 5-HT6R-dependent Gs signaling; cited from earlier work.

For `O=S(=O)(c1cccc(Cl)c1)n1ccc2c(N[C@H]3CCNC3)nc3ccccc3c21` [CPPQ, (S)-1-[(3-chlorophenyl)sulfonyl]-4-(pyrrolidine-3-yl-amino)-1H-pyrrolo[3,2-c]quinoline], the functional profile result is reported as “neutral antagonist”.
